Test results reported in ChEMBL document CHEMBL5532674 (2024).

Sequences of proteins named here, by UniProt entry; tags and fusion partners are left off. A change or cut given only in a name is not applied to a line headed by its entry.
UniProt P04757: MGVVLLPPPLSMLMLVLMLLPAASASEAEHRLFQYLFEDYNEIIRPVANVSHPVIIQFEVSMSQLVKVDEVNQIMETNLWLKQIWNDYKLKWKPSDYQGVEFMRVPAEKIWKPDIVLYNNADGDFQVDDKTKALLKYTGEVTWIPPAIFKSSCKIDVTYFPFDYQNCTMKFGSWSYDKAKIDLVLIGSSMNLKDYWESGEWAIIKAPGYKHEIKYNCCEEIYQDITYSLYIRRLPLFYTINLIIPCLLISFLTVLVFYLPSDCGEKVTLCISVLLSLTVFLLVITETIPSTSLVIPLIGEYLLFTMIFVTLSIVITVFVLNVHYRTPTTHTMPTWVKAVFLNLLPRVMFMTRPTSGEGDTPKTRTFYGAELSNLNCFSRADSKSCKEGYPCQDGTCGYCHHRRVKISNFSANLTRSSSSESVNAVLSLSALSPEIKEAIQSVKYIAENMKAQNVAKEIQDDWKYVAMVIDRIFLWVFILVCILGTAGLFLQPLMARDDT
UniProt P12392: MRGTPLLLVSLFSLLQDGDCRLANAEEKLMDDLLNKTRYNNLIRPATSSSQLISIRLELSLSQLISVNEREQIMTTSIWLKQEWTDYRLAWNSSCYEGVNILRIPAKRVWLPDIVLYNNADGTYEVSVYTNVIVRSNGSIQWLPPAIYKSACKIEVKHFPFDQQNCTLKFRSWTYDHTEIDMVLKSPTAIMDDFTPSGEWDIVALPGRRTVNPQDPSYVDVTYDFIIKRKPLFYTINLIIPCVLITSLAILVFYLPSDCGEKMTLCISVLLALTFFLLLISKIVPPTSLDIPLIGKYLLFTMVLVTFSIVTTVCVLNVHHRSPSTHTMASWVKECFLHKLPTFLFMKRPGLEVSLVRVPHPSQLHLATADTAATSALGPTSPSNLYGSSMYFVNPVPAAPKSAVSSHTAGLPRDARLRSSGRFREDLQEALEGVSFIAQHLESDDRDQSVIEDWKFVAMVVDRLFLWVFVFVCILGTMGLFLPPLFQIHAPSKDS
UniProt P08913, whole entry: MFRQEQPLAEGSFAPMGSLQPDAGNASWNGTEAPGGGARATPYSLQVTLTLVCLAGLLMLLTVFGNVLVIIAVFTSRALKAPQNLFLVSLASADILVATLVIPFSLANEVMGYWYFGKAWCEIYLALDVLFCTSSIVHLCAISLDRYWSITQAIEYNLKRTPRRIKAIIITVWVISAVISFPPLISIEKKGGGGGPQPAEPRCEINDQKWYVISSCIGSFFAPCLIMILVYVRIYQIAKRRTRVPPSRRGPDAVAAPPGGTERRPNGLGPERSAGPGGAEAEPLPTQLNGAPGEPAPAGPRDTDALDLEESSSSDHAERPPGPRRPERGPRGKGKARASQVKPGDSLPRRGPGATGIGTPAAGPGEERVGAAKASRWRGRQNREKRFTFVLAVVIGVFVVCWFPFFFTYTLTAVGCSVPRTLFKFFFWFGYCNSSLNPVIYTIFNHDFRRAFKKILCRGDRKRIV
UniProt P18825, whole entry: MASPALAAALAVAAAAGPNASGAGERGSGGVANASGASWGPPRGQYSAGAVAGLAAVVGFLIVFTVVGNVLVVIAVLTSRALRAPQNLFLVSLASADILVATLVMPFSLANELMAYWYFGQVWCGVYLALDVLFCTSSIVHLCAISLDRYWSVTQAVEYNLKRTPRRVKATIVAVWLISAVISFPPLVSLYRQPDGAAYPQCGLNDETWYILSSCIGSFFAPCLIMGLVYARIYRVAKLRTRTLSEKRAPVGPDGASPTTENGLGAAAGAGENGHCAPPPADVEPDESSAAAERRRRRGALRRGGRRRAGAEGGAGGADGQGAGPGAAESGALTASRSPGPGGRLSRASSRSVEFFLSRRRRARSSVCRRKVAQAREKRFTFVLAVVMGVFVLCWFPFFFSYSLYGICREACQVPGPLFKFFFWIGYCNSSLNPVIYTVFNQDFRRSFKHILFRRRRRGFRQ
UniProt P14416, whole entry: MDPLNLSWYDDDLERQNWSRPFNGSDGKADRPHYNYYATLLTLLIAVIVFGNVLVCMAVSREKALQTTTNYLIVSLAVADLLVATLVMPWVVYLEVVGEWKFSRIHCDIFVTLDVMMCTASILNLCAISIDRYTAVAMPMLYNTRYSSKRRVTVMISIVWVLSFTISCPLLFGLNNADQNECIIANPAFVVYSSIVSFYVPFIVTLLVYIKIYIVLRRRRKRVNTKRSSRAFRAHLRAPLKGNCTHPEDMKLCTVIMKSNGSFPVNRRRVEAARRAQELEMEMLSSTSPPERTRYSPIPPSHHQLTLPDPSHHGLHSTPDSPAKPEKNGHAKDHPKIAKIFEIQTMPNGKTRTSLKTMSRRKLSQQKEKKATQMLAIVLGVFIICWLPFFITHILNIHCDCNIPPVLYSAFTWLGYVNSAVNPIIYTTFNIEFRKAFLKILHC
UniProt P35462, whole entry: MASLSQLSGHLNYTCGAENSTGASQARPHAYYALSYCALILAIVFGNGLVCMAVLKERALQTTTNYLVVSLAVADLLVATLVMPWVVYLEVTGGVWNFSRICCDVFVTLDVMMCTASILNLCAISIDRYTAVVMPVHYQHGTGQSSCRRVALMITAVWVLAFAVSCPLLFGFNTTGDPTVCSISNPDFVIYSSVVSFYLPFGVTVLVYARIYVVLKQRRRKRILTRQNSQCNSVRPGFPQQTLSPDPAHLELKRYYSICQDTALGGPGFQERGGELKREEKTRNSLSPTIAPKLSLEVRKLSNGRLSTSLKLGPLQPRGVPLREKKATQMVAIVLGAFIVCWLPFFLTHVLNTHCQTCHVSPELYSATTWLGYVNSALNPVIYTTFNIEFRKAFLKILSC
UniProt P21917, whole entry: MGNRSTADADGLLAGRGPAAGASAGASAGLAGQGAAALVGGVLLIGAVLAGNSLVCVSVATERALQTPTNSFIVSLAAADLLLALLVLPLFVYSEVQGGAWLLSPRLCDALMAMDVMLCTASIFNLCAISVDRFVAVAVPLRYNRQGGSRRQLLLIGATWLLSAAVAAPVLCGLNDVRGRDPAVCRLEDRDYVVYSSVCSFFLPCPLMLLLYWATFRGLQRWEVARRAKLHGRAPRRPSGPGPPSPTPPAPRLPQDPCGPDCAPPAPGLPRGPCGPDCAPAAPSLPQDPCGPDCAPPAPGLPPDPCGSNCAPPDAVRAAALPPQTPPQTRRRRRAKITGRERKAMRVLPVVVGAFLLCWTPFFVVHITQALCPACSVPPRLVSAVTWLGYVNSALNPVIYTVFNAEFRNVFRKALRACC
UniProt P08172, whole entry: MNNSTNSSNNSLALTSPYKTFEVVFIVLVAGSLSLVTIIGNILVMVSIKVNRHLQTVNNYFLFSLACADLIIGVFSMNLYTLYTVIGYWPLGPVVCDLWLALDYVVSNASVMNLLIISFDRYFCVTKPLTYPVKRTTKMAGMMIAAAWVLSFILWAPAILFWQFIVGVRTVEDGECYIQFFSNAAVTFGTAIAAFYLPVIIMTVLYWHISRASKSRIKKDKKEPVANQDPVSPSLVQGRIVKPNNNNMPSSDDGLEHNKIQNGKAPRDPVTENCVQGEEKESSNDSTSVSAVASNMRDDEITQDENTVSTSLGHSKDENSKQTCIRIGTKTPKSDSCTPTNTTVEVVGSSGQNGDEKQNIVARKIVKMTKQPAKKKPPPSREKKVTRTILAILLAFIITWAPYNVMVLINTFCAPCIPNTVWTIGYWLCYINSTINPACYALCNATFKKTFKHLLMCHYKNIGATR
UniProt P08173, whole entry: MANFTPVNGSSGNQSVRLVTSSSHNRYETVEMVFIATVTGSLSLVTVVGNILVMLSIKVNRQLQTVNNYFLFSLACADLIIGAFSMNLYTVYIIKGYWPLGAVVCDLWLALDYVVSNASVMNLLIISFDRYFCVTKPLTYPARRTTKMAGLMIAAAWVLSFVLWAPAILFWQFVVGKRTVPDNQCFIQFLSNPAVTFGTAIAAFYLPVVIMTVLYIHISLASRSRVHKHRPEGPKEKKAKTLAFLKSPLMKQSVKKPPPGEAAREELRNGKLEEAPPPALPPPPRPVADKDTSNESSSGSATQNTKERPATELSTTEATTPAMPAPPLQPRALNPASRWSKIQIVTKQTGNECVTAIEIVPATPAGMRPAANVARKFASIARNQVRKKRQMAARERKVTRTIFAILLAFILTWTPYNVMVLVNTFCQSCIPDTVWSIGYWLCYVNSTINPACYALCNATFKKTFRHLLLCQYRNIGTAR

Tests used:
[1] = format: ADME, organism-based, Sprague-Dawley; conditions: rat, in vivo, ip, 10 mg/kg, 10 min
[2] = format: ADME, organism-based, Sprague-Dawley; conditions: rat, in vivo, ip, 10 mg/kg, 24 h
[3] = format: ADME, organism-based, Sprague-Dawley; conditions: rat, in vivo, ip, 10 mg/kg, 24 h; remark: listed apart in the source
[4] = biological target: T1, Neuronal acetylcholine receptor; alpha3/beta4 (Rattus norvegicus) (UniProt P04757+P12392); assay: Partial agonist activity at rat alpha3beta4 nAChR expressed in HEK293 cells assessed as increase in calcium flux by measuring increase in fluorescence intensity by FLIPR assay; format: cell-based; conditions: filed as partial agonist, dose 0.0001-100 µM
[5] = biological target: T1, Neuronal acetylcholine receptor; alpha3/beta4 (Rattus norvegicus); assay: Agonist activity at rat alpha3beta4 nAChR expressed in HEK293 cells assessed as increase in calcium flux by measuring increase in fluorescence intensity by FLIPR assay; format: cell-based; conditions: filed as agonist, dose 0.0001-100 µM
[6] = biological target: Alpha-2A adrenergic receptor (Homo sapiens) (UniProt P08913); conditions: dose 10.0 µM
[7] = biological target: Alpha-2C adrenergic receptor (Homo sapiens) (UniProt P18825); conditions: dose 10.0 µM
[8] = biological target: D(2) dopamine receptor (Homo sapiens) (UniProt P14416); conditions: dose 10.0 µM
[9] = biological target: D(3) dopamine receptor (Homo sapiens) (UniProt P35462); conditions: dose 10.0 µM
[10] = biological target: D(4) dopamine receptor (Homo sapiens) (UniProt P21917); conditions: dose 10.0 µM
[11] = biological target: Muscarinic acetylcholine receptor M2 (Homo sapiens) (UniProt P08172); conditions: dose 10.0 µM
[12] = biological target: Muscarinic acetylcholine receptor M4 (Homo sapiens) (UniProt P08173); conditions: dose 10.0 µM

CC1=CC[C@@H]2C[C@H]1[C@H](c1ccnc3ccccc13)NC2(C)C
Cmax [1]: 723.3 ng/mL | AUC [2]: 602.4 ng·h/mL | beta t1/2 [3]: 1.7 h

CN1[C@@H]2CCC[C@H]1C[C@@H](Nc1ccccc1Br)C2
Activity [4]: Active

Cc1cc([C@H]2C[C@@H]3CC[C@H]2N3)on1
Activity [5]: Active

CC1=CC[C@@H]2C[C@H]1[C@H](c1cc(F)cc(F)c1)NC2(C)C
Activity [6]: < 50% | Activity [7]: < 50% | Activity [8]: < 50% | Activity [9]: < 50% | Activity [10]: < 50% | Activity [11]: < 50% | Activity [12]: < 50%

Calls of active or inactive are those of the source. No cut-off for these calls is given here.
